AlphaSeq binding of Ab-95 light chain variants to a spike HR2 peptide

Antigen: PDVDLGDISGINAS, a 14-residue peptide of the SARS-CoV-2 spike HR2 region.

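Phage display of a naive human antibody library on the peptide gave the parent. The library (AAYL52) carries one to three amino acid substitutions per variant, with no insertions or deletions. In AlphaSeq, yeast of one mating type display the scFv and yeast of the other type display the target. The frequency of each diploid, read from paired DNA barcodes, reflects how well the two displayed proteins bind. Each replicate has its own calibration line, from reference interactions of the BCL2 family. Each pool was mated in three replicate cultures.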

The variants keep the heavy chain, the linker and the frameworks of Ab-95 (scFv order VH, three GGGGS repeats, VL).
VH: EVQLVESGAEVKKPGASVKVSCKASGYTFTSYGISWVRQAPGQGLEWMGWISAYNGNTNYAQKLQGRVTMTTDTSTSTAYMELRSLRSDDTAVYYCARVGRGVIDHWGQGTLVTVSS
VL: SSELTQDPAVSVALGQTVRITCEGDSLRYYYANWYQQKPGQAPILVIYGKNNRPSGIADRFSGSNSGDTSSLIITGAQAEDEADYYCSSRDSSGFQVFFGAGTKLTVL

Positions count from residue 1 of the parent VL; Y30P puts P in place of Y.
The read-out is the apparent dissociation constant on a log10 scale (nM): the lower, the stronger.
Averages over replicates are reported, and they cover detected replicates only.
"not detected" means that the variant was in the library but no mating with the target was seen in any replicate; the authors take this as a sign of poor binding, and no number exists.
Background: pairings of library AAYL52 with three empty control strains gave a value in 28% of cases (median 3.91, 5th percentile 2.90). Values in that range, when seen in few replicates, are hard to tell from nonspecific mating.

{"changes": "Y30P+K50Q+S89M", "log10 Kd (nM), mean": "1.49", "replicates with signal": "3/3"}
{"changes": "A32L+N51R+S92F", "log10 Kd (nM), mean": "5.47", "replicates with signal": "1/3"}
{"changes": "D25M+R28Q+N33L", "log10 Kd (nM), mean": "5.12", "replicates with signal": "1/3"}
{"changes": "G24E+S88M+S93I", "log10 Kd (nM), mean": "3.08", "replicates with signal": "2/3"}
{"changes": "E23G+R53L+S93R", "log10 Kd (nM), mean": "2.74", "replicates with signal": "2/3"}
{"changes": "E23H+P54T+S89L", "log10 Kd (nM), mean": "2.26", "replicates with signal": "3/3"}
{"changes": "S26L+Y31N+N51Y", "log10 Kd (nM), mean": "3.64", "replicates with signal": "2/3"}
{"changes": "N52G+S92F", "log10 Kd (nM), mean": "3.36", "replicates with signal": "3/3"}
{"changes": "D25Y+F98W", "log10 Kd (nM), mean": "2.26", "replicates with signal": "3/3"}
{"changes": "E23C+Y30H+S89P", "log10 Kd (nM), mean": "not detected", "replicates with signal": "0/3"}
{"changes": "S55T+S89G+F95L", "log10 Kd (nM), mean": "2.55", "replicates with signal": "3/3"}
{"changes": "L27F+S93R", "log10 Kd (nM), mean": "3.47", "replicates with signal": "3/3"}
{"changes": "L27H+Q96P+F98Y", "log10 Kd (nM), mean": "3.48", "replicates with signal": "2/3"}
{"changes": "Y29M+A32R+F95K", "log10 Kd (nM), mean": "2.86", "replicates with signal": "3/3"}
{"changes": "G24W+R53Q+S92F", "log10 Kd (nM), mean": "4.75", "replicates with signal": "2/3"}
{"changes": "S26V+S88Y+V97W", "log10 Kd (nM), mean": "2.73", "replicates with signal": "3/3"}
{"changes": "G49V+D91Y+S93D", "log10 Kd (nM), mean": "4.15", "replicates with signal": "2/3"}
{"changes": "P54M+G94T+V97K", "log10 Kd (nM), mean": "3.36", "replicates with signal": "1/3"}
{"changes": "D25H+R28I+F95Y", "log10 Kd (nM), mean": "2.62", "replicates with signal": "3/3"}
{"changes": "N33F+N52K+D91M", "log10 Kd (nM), mean": "3.55", "replicates with signal": "2/3"}
{"changes": "D25I+R28I+S93C", "log10 Kd (nM), mean": "not detected", "replicates with signal": "0/3"}
{"changes": "G24I+S26W+V97W", "log10 Kd (nM), mean": "4.05", "replicates with signal": "2/3"}
{"changes": "N51M+R90F", "log10 Kd (nM), mean": "not detected", "replicates with signal": "0/3"}
{"changes": "A32F+N51W+S89P", "log10 Kd (nM), mean": "3.83", "replicates with signal": "2/3"}
{"changes": "Y29W+Y30D+P54T", "log10 Kd (nM), mean": "3.05", "replicates with signal": "3/3"}
{"changes": "G24N+P54Q+D91A", "log10 Kd (nM), mean": "not detected", "replicates with signal": "0/3"}
{"changes": "D25M+R90Y", "log10 Kd (nM), mean": "2.21", "replicates with signal": "3/3"}

3 of these entries, quoted again:

{"changes": "L27F+S93R", "log10 Kd (nM), mean": "3.47", "replicates with signal": "3/3"}
{"changes": "Y29M+A32R+F95K", "log10 Kd (nM), mean": "2.86", "replicates with signal": "3/3"}
{"changes": "G24N+P54Q+D91A", "log10 Kd (nM), mean": "not detected", "replicates with signal": "0/3"}

In this assay the parent's reference entry averaged 2.31; its copy inside this library read 2.25.

Source: Engelhart et al. 2022 (doi:10.1038/s41597-022-01779-4), MIT Lincoln Laboratory and A-Alpha Bio; data file from the FLAb repository.